Experimental data taken from patent US10513524B2, “PDE9 inhibitors with imidazo triazinone backbone and imidazo pyrazinone backbone for treatment of peripheral diseases” (H. LUNDBECK A/S, priority 2015, dated 2019).

Settings: male CD mice, subcutaneous 10 mg/kg

C[C@@H]1CN(Cc2ncccn2)C[C@H]1c1nc2c(cnn2C2CCOCC2)c(=O)[nH]1 (single isomer, unassigned) [Reference compound, reference compound]
Brain concentration after 30 minutes (30 min): 500 ng/mL
Brain/Plasma ratio after 30 minutes (30 min): 0.41 0.41
Brain concentration after 120 minutes (120 min): 215 ng/mL
Brain/Plasma ratio after 120 minutes (120 min): 0.41 0.41
